Values quoted from earlier work in PMC8608967, “KDS2010, a Newly Developed Reversible MAO-B Inhibitor, as an Effective Therapeutic Candidate for Parkinson’s Disease” (Neurotherapeutics, 2021).

Key:
[1] = test system: MPTP-induced PD mouse model; settings: post-treatment or pre-treatment; cited from earlier work
[2] = test system: APP/PS1 transgenic mouse model of AD; set-up: method as in PMID 30906861; settings: long-term treatment (> 2 weeks); cited from earlier work

SMILES: C#CCN(C)[C@H](C)Cc1ccccc1 [selegiline, reference compound]
- therapeutic efficacy in the MPTP model [1]: significant therapeutic efficacy
- therapeutic effect of long-term treatment [2]: no therapeutic effect
